Target: T1, Phosphatidylinositol 4,5-bisphosphate 3-kinase catalytic subunit delta isoform (Homo sapiens, UniProt O00329)
T1 sequence (O00329 whole entry): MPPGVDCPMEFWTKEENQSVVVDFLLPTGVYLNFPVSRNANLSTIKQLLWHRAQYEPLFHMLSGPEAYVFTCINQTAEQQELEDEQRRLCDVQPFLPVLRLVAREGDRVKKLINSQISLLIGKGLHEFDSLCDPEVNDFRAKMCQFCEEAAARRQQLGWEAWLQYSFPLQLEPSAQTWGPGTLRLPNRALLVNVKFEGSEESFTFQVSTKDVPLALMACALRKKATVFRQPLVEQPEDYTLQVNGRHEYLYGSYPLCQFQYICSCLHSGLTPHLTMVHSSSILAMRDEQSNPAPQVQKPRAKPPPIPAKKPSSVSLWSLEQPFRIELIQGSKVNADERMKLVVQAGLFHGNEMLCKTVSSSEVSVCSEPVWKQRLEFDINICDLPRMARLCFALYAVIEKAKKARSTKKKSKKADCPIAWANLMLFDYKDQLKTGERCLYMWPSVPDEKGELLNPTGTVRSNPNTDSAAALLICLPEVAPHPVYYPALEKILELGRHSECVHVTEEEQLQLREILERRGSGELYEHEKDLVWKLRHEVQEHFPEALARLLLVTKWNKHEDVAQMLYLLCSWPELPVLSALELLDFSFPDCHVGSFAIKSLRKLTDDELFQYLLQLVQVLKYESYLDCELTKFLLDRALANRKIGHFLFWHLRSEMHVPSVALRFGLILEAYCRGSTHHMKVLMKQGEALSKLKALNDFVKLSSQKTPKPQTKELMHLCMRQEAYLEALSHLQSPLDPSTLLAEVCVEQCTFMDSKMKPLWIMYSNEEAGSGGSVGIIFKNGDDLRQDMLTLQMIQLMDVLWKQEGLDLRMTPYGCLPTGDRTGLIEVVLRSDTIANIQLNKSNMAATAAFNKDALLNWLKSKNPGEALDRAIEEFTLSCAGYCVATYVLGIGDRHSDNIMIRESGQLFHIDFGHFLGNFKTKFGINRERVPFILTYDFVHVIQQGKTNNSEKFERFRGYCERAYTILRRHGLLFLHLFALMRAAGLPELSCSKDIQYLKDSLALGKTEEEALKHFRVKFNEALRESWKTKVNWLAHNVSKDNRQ

IC50: 16 nM
Compound: CCn1nnc2c(N3CCOCC3)nc(-c3ccc(NC(=O)Nc4ccc(C(=O)N5CCN(C)CC5)cc4)cc3)nc21

From ChEMBL document CHEMBL1157707, “Lead optimization of N-3-substituted 7-morpholinotriazolopyrimidines as dual phosphoinositide 3-kinase/mammalian target of rapamycin inhibitors: discovery of PKI-402” (J Med Chem, 2010)
